This note sets out measurements from patent US9289381B2, “Stabilization and storage of biological pharmaceutical compositions” (The University of North Carolina at Charlotte, priority 2009, dated 2016).

Data set [1] is described as follows: Osmolality by vapor pressure osmometer, osmotic coefficient. Format: physicochemical.
Data set [2] deals with J774 murine macrophage cell line. Nature of the data set: Resazurin metabolism (cell viability) assay. Format: cell-based, mouse. (In general: Alamar Blue is a resazurin reagent that responds to reducing activity.)

Turning to Choline O,O′-diethyl dithiophosphate, in data set [1] (100 mM in water, 1 indicates 100% dissociation), the “osmotic coefficient (φ)” value worked out at 0.8. In addition, the “Osmotic Coef., φ in H2O” value in data set [1] (100 mM solutions in deionized water) was determined as 0.76. For the same substance, in data set [2] (J774, 48 h, value is the logarithm of EC50, error of last digit in parentheses, equation 1), the “Log EC50, μM (Dose Response Model)” value was 3.91 (2) μM. The EC50 (commonly the concentration giving half of the maximal effect) in data set [2] (J774, 48 h exposure) is 8.2 mM.
